# In US20160084841A1, “Method for Predicting Clinical Effect of Immunotherapy” (INTERNATIONAL INSTITUTE OF CANCER IMMUNOLOGY, INC., priority 2013, published 2016):
# Tested on: pancreatic cancer patient
# Assay: Anti-WT1126 IgG antibody titer (ELISA) in serum of a patient given WT1126 peptide and an anticancer agent
# Type: in vivo, human
# Conditions: one pancreatic cancer patient, combination with an anticancer agent; before vs 7 months after start; ELISA antigen WT1-frg1; FIG. 20
# Protocol: From a pancreatic cancer patient receiving a combination therapy with WT1126 peptide and an anticancer agent, a serum sample was obtained before the start of administration of the vaccine and at 7 months after the start of administration. Each serum sample was stored at −20° C. until assay.
# The measurement of the antibody titer using WT1-frg1 (SEQ ID NO: 64) was performed in the same way as in the aforementioned WT1-frg3 (SEQ ID NO: 57). The measurement of the antibody titer using WT126-134 (SEQ ID NO: 65), WK126-134 (SEQ ID NO: 66), WT128-134 (SEQ ID NO: 67), WT126-132 (SEQ ID NO: 68), WT129-134 (SEQ ID NO: 69), WT126-131 (SEQ ID NO: 70), or WT126-130 (SEQ ID NO: 71) was performed in the same way as in the aforementioned WT332-347 (SEQ ID NO: 58), etc.
sequence,measurement,value
RMFPNAPYL [WT1126 peptide],anti-WT1126 IgG antibody titer after the start of administration of the vaccine,increase in anti-WT1126 IgG antibody titer was detected
